Laboratory results: patent US7041818B2, “DDS compound and method for measurement thereof” (priority 1998, dated 2006)

Conditions: 5 mg/kg (as DX-8951) intravenously, livers at 0.5-24 hours; compared to control DDS compound (D)

For “Galactose-modified CM-dextran Polyalcohol-Gly-Gly-Phe-Gly-DX-8951 [galactose-modified DDS compound]”, the liver accumulation was “higher liver accumulation compared to the control DDS compound”.
